Experiments:
[1] = species on record: Homo sapiens; test: Protein binding in human plasma; settings: read-out: PPB (converted)
[2] = biological target: Voltage-gated inwardly rectifying potassium channel KCNH2 (Homo sapiens, UniProt Q12809); test: Displacement of [35S][…] from human ERG expressed in HEK293 cells; format: cell-based; settings: read-out: Inflection point

Chains of the proteins cited; added tags and fusions are not shown. Lines headed by an entry give the natural chain unless they say otherwise; changes in a name come on top.
UniProt Q12809: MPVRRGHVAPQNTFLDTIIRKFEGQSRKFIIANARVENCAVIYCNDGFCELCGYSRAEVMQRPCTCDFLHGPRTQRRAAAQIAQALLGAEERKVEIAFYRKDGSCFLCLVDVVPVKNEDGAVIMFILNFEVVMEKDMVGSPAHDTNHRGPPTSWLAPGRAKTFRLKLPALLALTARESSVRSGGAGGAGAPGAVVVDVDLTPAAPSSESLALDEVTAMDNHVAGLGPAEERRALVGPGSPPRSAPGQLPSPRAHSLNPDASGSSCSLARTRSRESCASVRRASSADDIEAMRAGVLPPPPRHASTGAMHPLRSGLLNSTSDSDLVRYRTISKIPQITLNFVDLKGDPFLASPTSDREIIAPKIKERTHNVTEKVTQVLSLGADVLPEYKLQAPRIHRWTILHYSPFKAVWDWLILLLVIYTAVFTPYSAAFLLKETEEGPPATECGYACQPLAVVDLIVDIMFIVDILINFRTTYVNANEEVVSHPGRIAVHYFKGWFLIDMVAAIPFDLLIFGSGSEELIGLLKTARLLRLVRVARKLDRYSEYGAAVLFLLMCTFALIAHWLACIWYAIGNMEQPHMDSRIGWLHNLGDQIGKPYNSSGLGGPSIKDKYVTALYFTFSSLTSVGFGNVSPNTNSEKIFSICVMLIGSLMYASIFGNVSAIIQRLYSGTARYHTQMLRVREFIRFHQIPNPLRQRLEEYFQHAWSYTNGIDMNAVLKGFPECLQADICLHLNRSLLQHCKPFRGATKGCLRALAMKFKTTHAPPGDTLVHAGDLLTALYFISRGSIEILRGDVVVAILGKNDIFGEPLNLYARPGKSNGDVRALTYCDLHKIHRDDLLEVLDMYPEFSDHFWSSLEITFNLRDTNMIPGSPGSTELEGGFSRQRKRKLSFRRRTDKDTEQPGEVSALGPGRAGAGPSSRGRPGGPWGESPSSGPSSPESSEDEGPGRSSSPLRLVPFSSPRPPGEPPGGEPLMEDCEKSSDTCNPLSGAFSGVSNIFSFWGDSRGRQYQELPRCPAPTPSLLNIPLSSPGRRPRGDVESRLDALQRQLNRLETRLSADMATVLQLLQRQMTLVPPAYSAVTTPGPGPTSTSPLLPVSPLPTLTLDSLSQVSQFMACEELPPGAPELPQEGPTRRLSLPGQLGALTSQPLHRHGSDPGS

fraction unbound [1]	SMILES	IC50 [2]
0.106	CC(=O)N1CCN(Cc2ccnc(Nc3ncc(C#N)s3)c2)CC1	10.6 µM
0.126	CNC(=O)N1CCN(Cc2ccnc(Nc3ncc(C#N)s3)c2)CC1	–

From ChEMBL document CHEMBL1149259, “Potent N-(1,3-thiazol-2-yl)pyridin-2-amine vascular endothelial growth factor receptor tyrosine kinase inhibitors with excellent pharmacokinetics and low affinity for the hERG ion channel” (J Med Chem, 2004)
